Molecular target: VEGFR-2 EC+TM-(GGS)5-YFP or -mCherry (human) (UniProt P35968)

Sequences of proteins named here, by UniProt entry; tags and fusion partners are left off. Residues count along the entry.
UniProt P35968, 20-1356: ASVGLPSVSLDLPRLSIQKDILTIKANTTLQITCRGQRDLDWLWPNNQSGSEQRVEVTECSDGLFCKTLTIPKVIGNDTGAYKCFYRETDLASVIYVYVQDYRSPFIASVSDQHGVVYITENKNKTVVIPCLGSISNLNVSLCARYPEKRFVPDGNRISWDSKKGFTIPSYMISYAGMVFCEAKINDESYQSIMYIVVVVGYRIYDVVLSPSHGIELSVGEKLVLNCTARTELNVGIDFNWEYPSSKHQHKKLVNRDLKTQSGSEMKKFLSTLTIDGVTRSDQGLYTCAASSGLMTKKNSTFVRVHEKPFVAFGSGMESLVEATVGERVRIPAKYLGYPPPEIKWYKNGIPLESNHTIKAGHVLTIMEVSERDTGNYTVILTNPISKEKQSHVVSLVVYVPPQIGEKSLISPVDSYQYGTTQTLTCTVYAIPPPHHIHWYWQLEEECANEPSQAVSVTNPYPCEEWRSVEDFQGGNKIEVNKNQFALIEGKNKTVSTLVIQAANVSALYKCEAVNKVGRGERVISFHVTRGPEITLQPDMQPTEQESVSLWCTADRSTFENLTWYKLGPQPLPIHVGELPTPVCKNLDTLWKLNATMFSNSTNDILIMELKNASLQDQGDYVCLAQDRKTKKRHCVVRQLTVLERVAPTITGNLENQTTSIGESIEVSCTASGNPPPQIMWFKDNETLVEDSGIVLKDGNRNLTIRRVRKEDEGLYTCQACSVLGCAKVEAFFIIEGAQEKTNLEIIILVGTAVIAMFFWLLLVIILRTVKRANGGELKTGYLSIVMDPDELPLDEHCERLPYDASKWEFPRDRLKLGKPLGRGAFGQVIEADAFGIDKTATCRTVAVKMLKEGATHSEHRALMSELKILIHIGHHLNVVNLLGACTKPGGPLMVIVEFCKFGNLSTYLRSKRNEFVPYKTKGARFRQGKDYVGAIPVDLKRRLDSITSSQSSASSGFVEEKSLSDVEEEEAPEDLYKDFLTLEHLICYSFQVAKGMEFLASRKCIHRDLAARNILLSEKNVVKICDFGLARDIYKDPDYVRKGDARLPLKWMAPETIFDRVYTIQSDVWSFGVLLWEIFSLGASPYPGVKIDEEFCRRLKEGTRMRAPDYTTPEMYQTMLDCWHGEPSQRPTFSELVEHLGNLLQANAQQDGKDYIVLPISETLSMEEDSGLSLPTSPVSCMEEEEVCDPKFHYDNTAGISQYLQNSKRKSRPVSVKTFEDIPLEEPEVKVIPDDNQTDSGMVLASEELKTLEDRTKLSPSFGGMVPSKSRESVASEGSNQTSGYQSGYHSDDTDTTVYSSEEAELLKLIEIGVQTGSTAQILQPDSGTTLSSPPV

Row | Substance | Intrinsic FRET of the EC+TM dimer (YFP/mCherry) with 3 ug/ml ligand; 0.61 without ligand
1 | human VEGF-A165a (ligand) | 0.43
2 | human VEGF-A165b (ligand) | 0.42
3 | human VEGF-A121 (ligand) | 0.45

Molecular target: full length wild-type human VEGFR-2 (human) (UniProt P35968)

Row | Substance | phosphorylation of full-length VEGFR-2 (Tyr 1175, Western blot) with 3 ug/ml ligand against no ligand
4 | human VEGF-A165a (ligand) | < 10 fold
5 | human VEGF-A165b (ligand) | < 10 fold
6 | human VEGF-A121 (ligand) | < 10 fold
